Assay [1] deals with bovine trypsin (type III) (bovine) (UniProt P00760). Briefly: enzyme inhibition kinetics, trypsin 50 pM.
Assay [2] has the same target. As to the kind of experiment: enzyme inhibition kinetics, trypsin 48.5 pM.
Assay [3] concerns the target bovine pancreatic kallikrein (bovine). Briefly: enzyme inhibition kinetics, kallikrein 100 pM.
Assay [4] has the same target. Briefly: enzyme inhibition kinetics, kallikrein 92.0 pM.
Assay [5] concerns the target bovine trypsin (type III) (bovine) (UniProt P00760). As to the kind of experiment: enzyme inhibition kinetics, trypsin 48.5 pM, GPK-AMC substrate.
Assay [6] addresses human tissue kallikrein (human) (UniProt P06870). Briefly: enzyme inhibition kinetics, tissue kallikrein, PFR-AMC substrate.
In assay [7] the target is bovine pancreatic kallikrein (bovine). As to the kind of experiment: enzyme inhibition kinetics, kallikrein 92.0 pM, PFR-AMC substrate.
Assay [8] addresses human tissue kallikrein (human) (UniProt P06870). Briefly: enzyme inhibition kinetics, tissue kallikrein 0.35 nM, PFR-AMC substrate.
In a further assay the target is human plasmin (human) (UniProt P00747). Briefly: enzyme inhibition kinetics, plasmin 50 pM.
The target of another assay is human factor Xa (human) (UniProt P00742). As to the kind of experiment: enzyme inhibition, factor Xa 0.87 nM, aprotinin 31 µM.

On to “Recombinant aprotinin (Trasylol) (from UniProt P00974 36-93)”, for which the Ki (usually the equilibrium dissociation constant of an inhibitor or competing ligand from its target) in assay [1] worked out at 0.8 nM; in assay [2], 0.8 nM; in [3], 0.02 nM; in assay [4] it was 0.02 nM; in assay [5] it was 0.8 nM; in assay [6], 0.004 nM. The values for the Ki in [7] and in assay [8] were 0.02 nM and 0.004 nM, respectively.

In the assay with human plasmin (human), “Recombinant aprotinin (Trasylol) (from UniProt P00974 36-93) (other; other documents disagree on this pair)” gave a Ki of 13 nM. For the same substance, the % Inhibition (commonly the relative decrease from the control value, in per cent) at 31 µM with human factor Xa (human) was 5%.

Values taken from patent EP1752538A1.
